This note sets out measurements from patent publication US20260098030A1, “NEGATIVE ALLOSTERIC MODULATORS OF METABOTROPIC GLUTAMATE RECEPTOR 2” (Vanderbilt University, priority 2022, published 2026).

Chains of the proteins cited; added tags and fusions are not shown. Residues count along the entry.
UniProt Q14416, 19-872 limits assumed: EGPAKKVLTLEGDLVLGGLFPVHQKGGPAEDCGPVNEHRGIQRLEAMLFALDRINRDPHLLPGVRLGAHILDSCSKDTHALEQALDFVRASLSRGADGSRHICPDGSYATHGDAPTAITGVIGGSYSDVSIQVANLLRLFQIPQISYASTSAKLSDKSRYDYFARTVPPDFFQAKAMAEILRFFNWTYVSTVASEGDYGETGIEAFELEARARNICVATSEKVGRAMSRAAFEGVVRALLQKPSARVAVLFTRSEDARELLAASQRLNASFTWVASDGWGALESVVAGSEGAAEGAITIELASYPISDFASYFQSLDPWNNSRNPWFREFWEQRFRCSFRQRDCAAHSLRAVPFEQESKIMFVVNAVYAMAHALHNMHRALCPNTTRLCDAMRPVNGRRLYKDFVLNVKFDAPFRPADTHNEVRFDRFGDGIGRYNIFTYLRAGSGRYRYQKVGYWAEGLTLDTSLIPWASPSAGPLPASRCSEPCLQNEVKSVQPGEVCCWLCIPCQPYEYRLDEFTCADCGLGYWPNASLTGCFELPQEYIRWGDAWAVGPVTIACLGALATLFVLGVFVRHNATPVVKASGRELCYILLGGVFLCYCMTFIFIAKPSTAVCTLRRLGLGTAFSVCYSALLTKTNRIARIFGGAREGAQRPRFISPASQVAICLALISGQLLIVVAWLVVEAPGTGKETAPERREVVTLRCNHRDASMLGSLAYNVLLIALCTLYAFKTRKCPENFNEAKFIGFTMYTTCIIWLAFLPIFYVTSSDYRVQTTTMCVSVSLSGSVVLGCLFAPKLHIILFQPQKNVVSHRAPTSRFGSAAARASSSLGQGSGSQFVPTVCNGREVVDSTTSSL

The target of this assay is human mGlu2 (Homo sapiens, UniProt Q14416). As to the kind of experiment: mGlu GIRK cell-based thallium flux assay, human mGlu2. The conditions noted are these: read-out: Human mGlu2 GIRK IC50, HEK-293 cells co-expressing human mGlu2 and GIRK, EC80 glutamate.

Some results are limits rather than exact numbers.

With `O=C1NCc2cc(CN3CCOCC3)c(-c3ccc(F)cc3F)cc21`, the IC50 is > 10 µM.

For the molecule `O=C1NCc2cc(CN3CCSCC3)c(-c3ccc(F)cc3F)cc21`, the half-inhibitory concentration (IC50) is > 10 µM.

Broadly, the IC50 is the point on the concentration scale where inhibition reaches its midpoint.
